From US11026906B2, “Pharmaceutical quality strontium L-lactate” (priority 2016, dated 2021)

Conditions: men and women, oral; comparator data from U.S. Pat. No. 7,595,342

## C[C@H](O)C(=O)[O-].C[C@H](O)C(=O)[O-].[Sr+2] [strontium L-lactate]
  absorption compared with strontium ranelate: more rapidly and efficiently absorbed
